The source of these data is ChEMBL document CHEMBL4257542, “Design, synthesis, and evaluation of bitopic arylpiperazine-phthalimides as selective dopamine D3 receptor agonists” (Medchemcomm, 2018).

Amino acid sequences for entries named in this document (tags omitted).
UniProt P14416, whole entry: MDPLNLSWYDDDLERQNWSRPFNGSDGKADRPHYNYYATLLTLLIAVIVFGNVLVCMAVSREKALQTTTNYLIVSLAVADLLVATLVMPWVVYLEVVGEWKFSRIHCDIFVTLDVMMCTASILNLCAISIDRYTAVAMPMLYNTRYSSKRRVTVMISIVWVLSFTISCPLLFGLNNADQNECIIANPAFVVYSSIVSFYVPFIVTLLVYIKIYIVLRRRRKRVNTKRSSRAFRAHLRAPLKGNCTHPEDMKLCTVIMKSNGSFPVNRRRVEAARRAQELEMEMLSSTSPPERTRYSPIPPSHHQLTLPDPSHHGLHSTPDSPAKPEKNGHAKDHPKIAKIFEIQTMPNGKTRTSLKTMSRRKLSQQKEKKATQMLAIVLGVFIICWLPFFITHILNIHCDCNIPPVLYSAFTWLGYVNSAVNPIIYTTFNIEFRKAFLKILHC

In general, inhibition refers to the percentage by which the read-out fell short of the control. Read a low inhibition as a weak effect.

The test has as its target D(2) dopamine receptor (Homo sapiens, UniProt P14416). The test can be described thus: Displacement of [3H]-sulpiride from human D2 receptor expressed in HEK293 cells at 100 nM after 150 mins by liquid scintillation counting method relative to control. Format: cell-based.

With `O=C(NCCCCN1CCN(c2cccc(Cl)c2Cl)CC1)c1cc2ccccc2[nH]1`, the inhibition is 29.6%.
